Data on two substances can be found in article PMC11157481, “Mechanochemical Synthesis of New Praziquantel Cocrystals: Solid-State Characterization and Solubility” (Crystal Growth & Design, 2024).

The data set is described as follows: Equilibrium solubility by the shake-flask method with HPLC-UV analysis. In kind it is physicochemical. The conditions noted are these: for Increase in solubility in SIF compared to PZQ alone: 24 h, relative to pure PZQ; for [PZQ] in SCF attained in 24 hours: simulated colonic fluid pH 7.8, 37 °C; for [PZQ] in SCF attained in 24 hours / [PZQ] in SGF attained in 24 hours / [PZQ] in SIF attained in 24 hours / [PZQ] in H2O attained in 24 hours: shake-flask, n = 3; for [PZQ] in SGF attained in 24 hours: simulated gastric fluid pH 1.5, 37 °C; for [PZQ] in SIF attained in 24 hours: simulated intestinal fluid pH 7.4, 37 °C; for [PZQ] in H2O attained in 24 hours: ultrapure water, 37 °C. The method, then: The stock solution of PZQ (2 mg/mL) was prepared by dissolving the pure compound in MeCN. Corresponding aliquots were diluted with the same solvent for the preparation of working PZQ solutions. Samples of 10 μL were injected into the chromatographic system. […] Ultrapure water was used as the reference dissolution medium. The solubility of the obtained PZQ cocrystals was determined by the shake-flask method. Briefly, excess PZQ and PZQ cocrystals (the corresponding amount of 6 mg of PZQ) were added to 2 mL vials containing 2 mL of the dissolution medium. The slurry samples were placed in an orbital shaker to achieve uniform mixing at 37 °C for 24 h. At different time intervals (10, 20, 30, 40, 50, 60, and 90 min), an aliquot of 200 μL of each sample was collected after centrifugation, filtered, and analyzed concerning the PZQ content by HPLC-UV analysis.
The solubilities of each cocrystal and PZQ were tested in ultrapure water and the three dissolution media, simulating the biorelevant fluids present along the entire gastrointestinal tract, namely, SGF (simulated gastric fluid), SIF (simulated intestinal fluid), and SCF (simulated colonic fluid).

As for “PZQ – SUBERIC ACID (SUB) [Co-Crystal 11]”, the “Increase in solubility in SIF compared to PZQ alone” value is 1.18 fold, the “[PZQ] in SCF attained in 24 hours” value is 250.99 µg/mL, the “[PZQ] in SGF attained in 24 hours” value is 278.27 µg/mL and the “[PZQ] in SIF attained in 24 hours” value is 226.99 µg/mL. Also, the “[PZQ] in H2O attained in 24 hours” value was found to be 271.99 µg/mL.

Regarding “PZQ – BENZENE-1,2,4,5-TETRACARBOXYLIC ACID (BTC) [Co-Crystal 10]”, the “Increase in solubility in SIF compared to PZQ alone” value turned out to be 1.65 fold, the “[PZQ] in SCF attained in 24 hours” value was 260.75 µg/mL, the “[PZQ] in SGF attained in 24 hours” value is 217.19 µg/mL and the “[PZQ] in SIF attained in 24 hours” value is 317.60 µg/mL. Besides, the “[PZQ] in H2O attained in 24 hours” value stood at 354.90 µg/mL.
